{
  "source": "patent US20220079895A1",
  "about": "“COMPOSITION FOR PREVENTING OR TREATING LIVER DISEASES” (AceBiomed, Inc., priority 2020, published 2022)",
  "key": {"collagen I": {"tested_on": "collagen I", "experiment": "expression of collagen I increased by TGF-β1 in hepatocytes AML12", "assay_type": "cell-based, mouse", "settings": "AML12 cells; 5 nM colchicine + 30 μg/ml DPP-4 inhibitor, TGF-β1 (5 ng/ml)", "description": "(§1) Mouse hepatocytes, AML12 cells, were incubated at 37° C., 95% air and 5% CO2 in a DMEM/F12 medium containing 5 μg/ml insulin, 5 μg/ml transferrin, 5 ng/ml selenium, 40 ng/ml dexamethasone, 10% fetal bovine serum (FBS) and 1% penicillin/streptomycin. AML12 cells pre-treated with 5 nM of colchicine and 30 μg/ml of a dipeptidyl peptidase-4 (DPP-4) inhibitor were treated with TGF-β1 (5 ng/ml) or 0.2 mM of palmitate after 8 hours, and further incubated for additional 16 hours.\n(§2) Total RNA was extracted using an RNeasy mini kit (Qiagen), and then synthesized into cDNA using a high-capacity cDNA reverse transcription kit (Thermo Fisher). The same amount of cDNA was amplified using a SYBR™ green PCR master mix and a 10 pM primer set for each gene. The amplification process was subjected to an initial denaturation process at 95° C. for 5 minutes, and repetitively replication at 95° C. for 10 seconds, 58.5° C. for 10 seconds, and 72° C. for 10 seconds for a total of 40 times."}, "SREBP1": {"tested_on": "SREBP1", "experiment": "expression of SREBP1 induced by palmitate in hepatocytes AML12", "assay_type": "cell-based, mouse", "settings": "AML12 cells; 5 nM colchicine + 30 μg/ml DPP-4 inhibitor, 0.2 mM palmitate", "description": "as §1, §2"}},
  "data": [
    {"smiles": "Cn1c(=O)cc(N2CCC[C@@H](N)C2)n(Cc2ccccc2C#N)c1=O", "note": "[alogliptin]", "values": [
      {"measurement": "additive interaction with colchicine in inhibiting the expression of collagen I", "setting": "collagen I", "value": "excluding"},
      {"measurement": "additive interaction with colchicine in inhibiting the expression of SREBP1", "setting": "SREBP1", "value": "excluding"}
    ]}
  ]
}
